How the values were obtained:
Type in all cases: binding
[1] = target: mutant A1R (Homo sapiens, UniProt P30542, N280A); conditions: N280^7.45A
[2] = target: mutant A1R (Homo sapiens, UniProt P30542, S246A); conditions: S246^6.47A
[3] = target: mutant A1R (Homo sapiens, UniProt P30542, L242A/L245A); conditions: L242^6.43A/L245^6.46A
[4] = target: mutant A1R (Homo sapiens, UniProt P30542, G279A); conditions: G279^7.44A

Protein sequences, listed by entry. Tags and fused reporters are not part of them.
UniProt P30542, whole entry N280A: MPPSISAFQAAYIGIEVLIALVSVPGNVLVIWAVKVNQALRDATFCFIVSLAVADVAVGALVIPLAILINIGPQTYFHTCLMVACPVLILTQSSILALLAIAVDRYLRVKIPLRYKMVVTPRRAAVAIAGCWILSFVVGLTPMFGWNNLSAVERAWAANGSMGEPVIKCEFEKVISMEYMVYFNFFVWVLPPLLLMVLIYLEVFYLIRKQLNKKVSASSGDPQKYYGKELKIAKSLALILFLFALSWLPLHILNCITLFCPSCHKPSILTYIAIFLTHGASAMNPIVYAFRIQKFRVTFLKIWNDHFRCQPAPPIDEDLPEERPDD
UniProt P30542, whole entry S246A: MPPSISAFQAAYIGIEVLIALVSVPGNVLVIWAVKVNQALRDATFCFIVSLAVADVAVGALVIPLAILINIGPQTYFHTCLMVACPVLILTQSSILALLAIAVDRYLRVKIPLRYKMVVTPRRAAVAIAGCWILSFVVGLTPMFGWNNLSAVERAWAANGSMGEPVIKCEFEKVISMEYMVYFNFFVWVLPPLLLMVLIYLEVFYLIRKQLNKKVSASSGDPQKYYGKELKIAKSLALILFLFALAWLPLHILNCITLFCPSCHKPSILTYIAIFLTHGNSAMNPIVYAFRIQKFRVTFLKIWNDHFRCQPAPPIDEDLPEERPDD
UniProt P30542, whole entry L242A/L245A: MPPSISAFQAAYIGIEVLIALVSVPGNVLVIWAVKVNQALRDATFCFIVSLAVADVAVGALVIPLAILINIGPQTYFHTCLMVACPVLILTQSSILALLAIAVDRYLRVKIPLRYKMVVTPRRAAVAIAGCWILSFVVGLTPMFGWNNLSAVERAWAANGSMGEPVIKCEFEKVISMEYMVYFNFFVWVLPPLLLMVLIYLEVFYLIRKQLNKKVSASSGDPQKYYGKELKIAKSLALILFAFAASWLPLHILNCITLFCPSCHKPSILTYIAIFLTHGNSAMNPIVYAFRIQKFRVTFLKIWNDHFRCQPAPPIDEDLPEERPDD
UniProt P30542, whole entry G279A: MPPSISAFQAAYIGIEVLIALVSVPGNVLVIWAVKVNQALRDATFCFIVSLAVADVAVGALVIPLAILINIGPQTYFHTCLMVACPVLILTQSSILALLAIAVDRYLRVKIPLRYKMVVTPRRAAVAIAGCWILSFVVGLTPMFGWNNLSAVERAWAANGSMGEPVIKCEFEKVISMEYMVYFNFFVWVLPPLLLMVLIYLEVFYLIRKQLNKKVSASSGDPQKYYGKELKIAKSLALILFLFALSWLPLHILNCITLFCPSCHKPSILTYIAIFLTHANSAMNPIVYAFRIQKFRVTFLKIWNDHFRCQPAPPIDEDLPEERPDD

Structure (SMILES): CCNC(=O)[C@H]1O[C@@H](n2cnc3c(N)ncnc32)[C@H](O)[C@@H]1O [NECA, reference compound]
- change in orthosteric agonist affinity vs wild type [1]: significantly enhanced the affinity
- change in orthosteric agonist affinity vs wild type [2]: significantly enhanced the affinity
- change in orthosteric agonist affinity vs wild type [3]: significantly enhanced the affinity
- change in orthosteric agonist affinity vs wild type [4]: reduced NECA affinity

Source: publication PMC8711093 (Nature, 2021)
